Screens (PubChem BioAssay)
Only some compounds are listed: those with a hit (about 2.8% of all), similar ones and a draw of the others.
esBAF inh: inhibitors of esBAF chromatin remodeling in mouse ES cells; Bmi1-luciferase knock-in reporter, 24 h; 100% = twice the neutral-well signal; reporter increase, % at 12.5 µM; 350,000 compounds, 2% hits; AID 602393; in the data active means activation above about 40%;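 further: 0% = median of the plate's neutral control wells and 100% = double that signal; a rise in the Bmi1 reporter signal indicates esBAF inhibition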
C2C12 statin: protects C2C12 myotubes from simvastatin toxicity; ATP luminescence, 48 h; scaled: DMSO 0, geranylgeraniol control 100; rescue of ATP level, % at 7.49 µM; 330,000 compounds, 0.78% hits; AID 602340;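 active means mean ATP rescue above about 67%, or every replicate alone reaching that limit, limit read from the data, passing the limit was not always enough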;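 further: myotubes were challenged with 10 µM simvastatin during compound exposure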
E-selectin induc: induces E-selectin expression in human endothelial cells | P16581 | HUVEC E-selectin immunofluorescence imaging; normalized: neutral wells 0, TNF-alpha wells 100 | activation, % at 7.58 µM | 260,000 compounds, 0.37% hits;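 active means mean E-selectin-positive cell signal at least 10% of the positive control, reached in at least 60% of replicates, without over 20% cell loss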
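Material: HUVEC primary endothelial cells; Amount: 3,000 cells per well; Dosing: single concentration; Medium: EGM-2 growth medium on 0.1% gelatin-coated wells; Read-out basis: percent E-selectin-positive cells; Signal: immunofluorescence imaging; Control set: TNF-alpha, DMSO.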
PglD inh: blocks C. jejuni PglD acetyltransferase activity; purified PglD enzyme, DTNB colorimetric CoA detection; inhibition, % at 12.5 µM; 360,000 compounds, 0.098% hits; in the data active means inhibition above about 16%, passing the limit was not always enough
PGC1a acetyl inh: modulators of PGC1a acetylation | AID 651687 | U2OS PGC1a acetylation, AlphaScreen anti-acetyl-lysine; with virally co-expressed GCN5 acetyltransferase | 350,000 compounds, 0.17% hits | inhibition, % at 15.6 µM;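 active means every replicate shows inhibition of at least 40%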;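 further: 0% = neutral control wells and 100% = positive control wells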
Yeast UUG start: modulators of start codon recognition fidelity in yeast; S. cerevisiae UUG-firefly luciferase reporter, luminescence/redox ratio; activity score, % at 18.7 µM; hit rate 0.13% among 350,000; AID 602363;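 active = replicate mean at a twofold rise or more, about +100% in these data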;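 note: firefly luciferase made from a UUG start codon reports start codon fidelity; reporter light over untreated wells divided by growth signal over untreated wells; some hits fall short of that in this replicate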
Starred values were filed as active, the others as inactive; · = no result; ! = not confirmed by another sample.

SMILES	esBAF inh	C2C12 statin	E-selectin induc	PglD inh	PGC1a acetyl inh	Yeast UUG start
CN(C)CC(=O)N1CC2(C1)[C@@H](c1ccccc1)[C@@H](CO)N2C(=O)C1CCCCC1	·	·	0	·	-1	·
CC(Cn1cncn1)NC(=O)c1cc(COc2cccc(C(F)(F)F)c2)on1 (stereo not drawn)	12	-9	·	2	8	-12
CC(NC(=O)c1cc(COc2cccc(C(F)(F)F)c2)on1)c1nccs1 (stereo not drawn)	61*	-3	-1	-4	-1	-6
O=C(c1cc(COc2cccc(C(F)(F)F)c2)on1)N1CCCC1	70*	-3	0	-6	-10	-17
C[C@@H]1CN(C(=O)c2cc(COc3cccc(C(F)(F)F)c3)on2)C[C@H](C)O1	57*	-18	0	2	-4	-4
CCOC(=O)N1CCN(C(=O)c2cc(COc3cccc(C(F)(F)F)c3)on2)CC1	·	·	·	0	-1	-6
COCC(=O)Nc1ccc2c(c1)[C@@H]1C[C@H](CC(=O)NCc3ccc(OC)cc3)O[C@H](CO)[C@@H]1O2	-2	11	0	-1	4	34
O=C(Nc1ccc(C(F)(F)F)cc1)N1C[C@@H]2N[C@H](C1)C2c1ccc(-c2cccc(F)c2)cc1 (stereo partly drawn)	·	·	0	·	62*!	·
COc1ccc(NC(=O)N2C[C@@H]3N[C@H](C2)C3c2ccc(-c3cccc(F)c3)cc2)cc1 (stereo partly drawn)	·	·	1	·	-17	·
O=C(NCC[C@@H]1CC[C@H](NC(=O)c2ccncc2)[C@H](CO)O1)Nc1ccc(Cl)cc1	-1	-2	0	-5	2	-6
O=C(N/N=C/C(Cl)=C/c1ccccc1)c1ccccc1F	48*	-29	·	-1	-9	-18
O=C(N/N=C/C(Br)=C/c1ccccc1)c1ccccc1F	51*	-83	0	-3	-57	-12
O=C(N/N=C/C(Cl)=C\c1ccccc1)c1ccco1	·	·	4	15	·	-10
O=C(Oc1ccc(/C=N/NC(=O)c2ccccc2O)cc1)c1ccccc1	30	28	·	-3	·	-14
O=C(Oc1ccc(/C=N/NC(=O)c2ccccc2F)cc1)c1ccccc1	47*	-8	·	0	·	-21
O=C(N/N=C/C(Cl)=C/c1ccccc1)c1ccco1	70*	0	-1	7	16	-17
COc1ccc2c3c(n(C)c2c1)[C@@H](CO)N(C(=O)c1ccccc1)CC31CCN(C(=O)c2ccccc2)CC1	·	·	0	·	25	·
C/C(=N\NC(=O)c1ccco1)c1ccc(-c2ccccc2)cc1	59*	12	-12	5	-18	1
C[C@H](NC(=O)C[C@@H]1C[C@@H]2c3cc(NC(=O)C4CCOCC4)ccc3O[C@@H]2[C@@H](CO)O1)c1ccccc1	2	1	0	2	2	·
Nc1c(Cl)cc(Cl)cc1C(=O)OCC(=O)NC1CC1	4	70*	·	-1	36	-19
O=C(COC(=O)c1ccc(F)cc1Cl)NC1CC1	8	-2	0	0	-5	-23
COc1ccc2[nH]c(=O)c3c(c2c1)OC(C)(C)C=C3	-3	11	3	4	25	1
Cc1cc2c([nH]c3ccccc32)c2c1OC(C)(C)C=C2	92*	-15	·	2	-6	-14
CO[C@H]1CN(C)C(=O)c2cc(NC(C)=O)ccc2OC[C@@H](C)N(C(=O)C2CCOCC2)C[C@H]1C	0	7	0	0	0	-5

Whole records as entered above. Order of values: esBAF inh, C2C12 statin, E-selectin induc, PglD inh, PGC1a acetyl inh, Yeast UUG start
`O=C(Oc1ccc(/C=N/NC(=O)c2ccccc2O)cc1)c1ccccc1` as listed: 30, 28, ·, -3, ·, -14
`Nc1c(Cl)cc(Cl)cc1C(=O)OCC(=O)NC1CC1` as listed: 4, 70*, ·, -1, 36, -19

Three of the entries above in order of their number in PGC1a acetyl inh, smallest number first:
Compound,PGC1a acetyl inh
Cc1cc2c([nH]c3ccccc32)c2c1OC(C)(C)C=C2,-6
CO[C@H]1CN(C)C(=O)c2cc(NC(C)=O)ccc2OC[C@@H](C)N(C(=O)C2CCOCC2)C[C@H]1C,0
C[C@H](NC(=O)C[C@@H]1C[C@@H]2c3cc(NC(=O)C4CCOCC4)ccc3O[C@@H]2[C@@H](CO)O1)c1ccccc1,2

Results in PGC1a acetyl inh and esBAF inh (2 entries from above):
SMILES,PGC1a acetyl inh,esBAF inh
O=C(Oc1ccc(/C=N/NC(=O)c2ccccc2F)cc1)c1ccccc1,·,47*
O=C(COC(=O)c1ccc(F)cc1Cl)NC1CC1,-5,8

(continued)
SMILES	esBAF inh	C2C12 statin	E-selectin induc	PglD inh	PGC1a acetyl inh	Yeast UUG start
Clc1ccc(-c2cc3nc(NCc4cccc(Cl)c4)ccn3n2)cc1	76*	-4	0	4	7	2
Clc1cccc(CNc2ccn3nc(-c4cccc(Cl)c4)cc3n2)c1	58*	3	2	0	·	-15
Clc1cccc(CNc2ccn3nc(-c4ccccc4)cc3n2)c1	50*	10	0	6	·	-21
CC(C)(C)c1cc2nc(NCc3cccc(Cl)c3)ccn2n1	7	-15	1	-2	·	-6
Clc1cccc(CNc2ccn3nc(-c4ccc(OCc5ccccc5)cc4)cc3n2)c1	17	2	0	-1	·	-24
Clc1cccc(-c2cc3nc(NCCOc4ccccc4)ccn3n2)c1	57*	3	0	0	6	-7
c1ccc(COc2cccc(-c3cc4nc(NCCOc5ccccc5)ccn4n3)c2)cc1	-2	-7	1	2	-2	-24
CO[C@H](CN(C)S(=O)(=O)c1ccc(C)cc1)[C@H](C)CN(C(=O)Nc1ccccc1F)[C@H](C)CO	9	9	0	-1	-3	·
CN(C)C(=O)c1ccc(-c2ccc([C@H]3[C@@H](CO)N4CCCCN(C(=O)C5CCCC5)C[C@H]34)cc2)cc1	·	·	·	8	0	13
COc1ccc(CN(C)C[C@H]2Oc3ccc(NC(=O)Cc4ccccc4)cc3CC(=O)N([C@H](C)CO)C[C@@H]2C)cc1	·	·	1	·	1	·
c1ccc(COc2ccc(-c3cc4nc(NCCN5CCOCC5)ccn4n3)cc2)cc1	49*	13	·	-11	·	-20
c1ccc(COc2cccc(-c3cc4nc(NCCN5CCOCC5)ccn4n3)c2)cc1	2	5	2	10	·	-17
CC(C)Cc1ccc(-c2cc3nc(NCCOc4ccccc4)ccn3n2)cc1	58*	9	1	1	0	-10
Clc1ccccc1-c1cc2nc(NCc3ccco3)ccn2n1	72*	4	0	4	·	-41
c1ccc(COc2ccc(-c3cc4nc(NCCOc5ccccc5)ccn4n3)cc2)cc1	5	6	·	0	-15	2
COc1cc(-c2cc3nc(NCc4ccco4)ccn3n2)cc(OC)c1OC	1	11	·	0	0	-11
COc1ccc(S(=O)(=O)N(C)C[C@@H]2Oc3ccc(NC(=O)Cc4ccccc4)cc3C(=O)N([C@@H](C)CO)C[C@@H]2C)cc1	4	-21	0	6	-5	13
Cc1cccc2c3nc4ccccc4nc3n(C)c12	41*	9	1	-3	-8	22
COc1ccc(-c2csc(-c3ccc(C(=O)O)cc3)n2)cc1	·	·	0	·	·	·
COc1ccc(-c2nc(CC(=O)O)cs2)cc1	20	105*	·	-4	2	-10
COc1ccc(NC(=O)N(C)C[C@@H]2OCCCC[C@@H](C)Oc3ccc(NC(=O)C4CCCCC4)cc3C(=O)N([C@@H](C)CO)C[C@H]2C)cc1	0	·	0	0	-9	2
CCOC(=O)c1ccc2c(c1)nc(COc1ccc(OC)cc1)n2CC	4	107*	·	-2	-38	-20
CCOC(=O)c1ccc2c(c1)nc(-c1ccccn1)n2CC	73*	-4	·	-2	·	-34
COCCNC(=O)C[C@H]1CC[C@H]2[C@H](COc3ccc(NC(=O)Nc4ccccc4)cc3C(=O)N2C)O1	3	10	0	8	2	-10
